Test [1] deals with rat articular chondrocytes (rArCs). The test is described as follows: WNT/β-catenin agonist or antagonist treatment of rArCs with or without TNF-α. It is filed as cell-based.
For test [2] the test system is unchanged. The test is described as follows: WNT/β-catenin agonist or antagonist treatment of rArCs with or without IL-1β. It is filed as cell-based.

As for lithium chloride, the MMP-13 production entry in test [1] (LiCl 5 mM or 10 mM plus 10 ng/mL TNF-α) is on record as “no differences in MMP-13 production”; in test [1] (compound alone, no TNF-α), “no differences in MMP-13 production”; in test [2] (compound alone, increasing concentrations, no IL-1β), “decrease in MMP-13 production”; in test [2] (compound plus 10 ng/mL IL-1β), “decrease in MMP-13 production”.

Values taken from patent US20230407304A1, “USE OF MICRORNA INHIBITION TO PREVENT AND TREAT OSTEOARTHRITIS AND OTHER INFLAMMATORY DISEASES” (VIRGINIA COMMONWEALTH UNIVERSITY, priority 2020, published 2023).
